# Values of other authors in patent US10166246B2, “TGR5 agonist complexes for treating diabetes and cancer” (City of Hope, priority 2014, dated 2019).
# Settings: in vivo; cited from earlier work
smiles,measurement,value
"CN(C)C(=N)N=C(N)N [Metformin, N,N-dimethylbiguanidine]",metabolism,not metabolized
same,time to steady state,one or two
